The source of these data is patent publication US12624034B2, “Non-covalent modifiers of AKT1 and uses thereof” (Terremoto Biosciences, Inc., priority 2023, dated 2026).

Amino acid sequences for entries named in this document (tags omitted). A change or cut given only in a name is not applied to a line headed by its entry.
UniProt P31751, whole entry: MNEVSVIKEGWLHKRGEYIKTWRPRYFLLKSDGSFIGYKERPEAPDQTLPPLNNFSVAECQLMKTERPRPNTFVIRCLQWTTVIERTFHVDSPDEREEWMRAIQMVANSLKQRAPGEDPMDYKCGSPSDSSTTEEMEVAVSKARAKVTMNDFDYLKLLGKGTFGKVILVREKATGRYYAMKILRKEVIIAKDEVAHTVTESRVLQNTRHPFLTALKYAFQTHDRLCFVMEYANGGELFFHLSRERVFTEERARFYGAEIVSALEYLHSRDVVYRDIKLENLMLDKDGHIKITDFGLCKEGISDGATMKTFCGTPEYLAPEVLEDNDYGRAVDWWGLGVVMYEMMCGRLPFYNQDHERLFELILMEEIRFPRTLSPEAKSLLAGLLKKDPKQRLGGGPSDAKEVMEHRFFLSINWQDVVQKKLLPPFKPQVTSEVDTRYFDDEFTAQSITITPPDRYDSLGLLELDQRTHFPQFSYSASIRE
UniProt P31749, whole entry: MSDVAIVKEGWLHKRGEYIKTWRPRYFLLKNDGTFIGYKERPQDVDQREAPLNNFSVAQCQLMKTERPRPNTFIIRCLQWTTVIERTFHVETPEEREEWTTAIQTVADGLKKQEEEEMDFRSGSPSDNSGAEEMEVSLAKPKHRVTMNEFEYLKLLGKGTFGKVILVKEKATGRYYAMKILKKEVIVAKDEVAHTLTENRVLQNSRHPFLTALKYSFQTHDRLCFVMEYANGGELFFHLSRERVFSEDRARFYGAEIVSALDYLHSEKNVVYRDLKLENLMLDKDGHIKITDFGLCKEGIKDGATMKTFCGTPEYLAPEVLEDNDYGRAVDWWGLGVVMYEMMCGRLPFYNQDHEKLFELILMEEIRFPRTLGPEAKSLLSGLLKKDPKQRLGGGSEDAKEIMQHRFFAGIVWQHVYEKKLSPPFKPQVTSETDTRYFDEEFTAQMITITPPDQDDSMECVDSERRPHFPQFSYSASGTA
UniProt P31749, whole entry E17K: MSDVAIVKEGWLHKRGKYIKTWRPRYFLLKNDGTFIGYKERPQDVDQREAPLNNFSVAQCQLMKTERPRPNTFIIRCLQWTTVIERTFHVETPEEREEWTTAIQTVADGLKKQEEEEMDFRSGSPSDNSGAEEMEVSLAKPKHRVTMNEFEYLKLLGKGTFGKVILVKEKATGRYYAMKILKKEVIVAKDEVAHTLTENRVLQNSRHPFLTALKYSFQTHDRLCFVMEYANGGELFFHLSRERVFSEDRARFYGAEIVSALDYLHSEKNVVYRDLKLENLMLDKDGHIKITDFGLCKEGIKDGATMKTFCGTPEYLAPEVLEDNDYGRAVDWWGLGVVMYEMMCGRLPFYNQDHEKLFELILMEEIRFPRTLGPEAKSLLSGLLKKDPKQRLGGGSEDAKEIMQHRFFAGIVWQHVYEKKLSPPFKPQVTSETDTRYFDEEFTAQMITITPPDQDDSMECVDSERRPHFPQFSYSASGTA

For assay [1], the target named is AKT2 (Homo sapiens, UniProt P31751). Description: Live cell AKT2 target engagement by NanoBRET competitive probe displacement in HEK293 cells. Conditions: read-out: AKT2 IC50, 2 h at 37° C. (In BRET a luciferase serves as donor, and the signal depends on an acceptor being close.)
Assay [2] addresses AKT1 WT (Homo sapiens, UniProt P31749). The experiment in a line: Live cell AKT1 WT target engagement by NanoBRET competitive probe displacement in HEK293 cells. Particulars: read-out: AKT1 WT IC50, 2 h at 37° C.
In assay [3] the target is AKT1 E17K (Homo sapiens, UniProt P31749, E17K). The experiment in a line: Live cell AKT1 E17K target engagement by NanoBRET competitive probe displacement in HEK293 cells. Conditions: read-out: AKT1 E17K IC50, 2 h at 37° C.
In assay [4] the test system is LAPC4 prostate cancer cells, which express the AKT1 E17K allele. Description: Antiproliferative effects in LAPC4 cells (CellTiter Glo, 72 h). (In general: Cellular ATP, detected with luciferase, serves as a proxy for viable cell number.)
The mark [5] stands for this setting: NanoBRET competitive probe displacement, live HEK293 cells.
Setting [6] is: NanoBRET live cell target engagement, HEK293 cells, tested form: TFA.
Setting [7] is: read-out: LAPC4 proliferation IC50.
The mark [8] stands for this setting: NanoBRET live cell target engagement, HEK293 cells.
Where [9] appears, read: NanoBRET competitive probe displacement, live HEK293 cells, tested form: formate.

Where two headings read alike, the source gives them in different places.

As for `Nc1ncccc1-c1nc2ccc(-c3ccn(C4COC4)n3)nc2n1-c1ccc2c(c1)CC[C@@H]2NC1CCN(C(=O)C2CC2)CC1`, the IC50 in assay [1] (setting [5]) stood at 4300 nM; in assay [2] (setting [5]) it was 133 nM.
`COc1cc(C(=O)N[C@H]2CCc3cc(-n4c(-c5cccnc5N)nc5ccc(-n6nccn6)nc54)ccc32)cc(OC)n1`: the IC50 in assay [3] (setting [6]) came out at 15.8 nM; in assay [1] (setting [6]), 90.1 nM; in assay [2] (setting [6]), 3.48 nM; in assay [4] (read-out: LAPC4 proliferation IC50, tested form: TFA), 687 nM.
With `Nc1ncccc1-c1nc2ccc(-n3cccn3)nc2n1-c1ccc2c(c1)CCC2NC1CCN(C(=O)C2CC2)CC1` (stereo not drawn), the IC50 amounted to 2930 nM in assay [1] (setting [5]) and 74.1 nM in assay [2] (setting [5]).
Regarding `Nc1ncccc1-c1nc2ccc(-n3nccn3)nc2n1-c1ccc2c(c1)CC[C@@H]2NC(=O)c1cnc(C2CC2)o1`, the IC50 in assay [1] (setting [5]) came to 1570 nM; in assay [2] (setting [5]), 26.2 nM.
`Cc1cc(C(=O)N[C@H]2CCc3cc(-n4c(-c5cccnc5N)nc5ccc(-n6cccn6)nc54)ccc32)c2c(n1)OCC2`: the IC50 was 120 nM in assay [3] (setting [5]), 137 nM in assay [1] (setting [5]), 7.78 nM in assay [2] (setting [5]) and 1650 nM in assay [4] (setting [7]).
Consider `Nc1ncccc1-c1nc2ccc(-n3cccn3)nc2n1-c1ccc2c(c1)CC[C@@H]2NC(=O)c1cncc2c1CCO2`, for which the IC50 was 55.9 nM in assay [3] (setting [8]), 63.3 nM in assay [1] (setting [8]), 7.01 nM in assay [2] (setting [8]) and 1710 nM in assay [4] (setting [7]).
On to `N#Cc1nc(C2CC2)cc(N2CCC(N[C@H]3CCc4cc(-n5c(-c6cccnc6N)nc6ccc(-n7cccn7)nc65)ccc43)CC2)n1`, for which the IC50 in assay [3] (setting [9]) was 61.4 nM; in assay [1] (setting [9]), 351 nM; in assay [2] (setting [9]), 34 nM.
